Legend:
Experiment in all cases: ELISA
KKD-m8 = target: KKD-m8
KKD-m3 = target: KKD-m3
KKD(6X)-m5 = target: KKD(6X)-m5
KKD(6X)-m3 = target: KKD(6X)-m3
KKD(6X)-m1 = target: KKD(6X)-m1
KKD(6X)-m4 = target: KKD(6X)-m4

Kd (KKD-m8): > 5000 nM
Kd (KKD-m3): 425 nM
Kd (KKD(6X)-m5): 6700 nM
Kd (KKD(6X)-m3): 1810 nM
Kd (KKD(6X)-m1): 43 nM
Kd (KKD(6X)-m4): 4020 nM
B1: Keap1 Kelch Domain (KKD) (other)
chain: APKVGRLIYTAGGYFRQSLSYLEAYNPSDGTWLRLADLQVPRSGLAGCVVGGLLYAVGGRNNSPDGNTDSSALDCYNPMTNQWSPCAPMSVPRNRIGVGVIDGHIYAVGGSHGCIHHNSVERYEPERDEWHLVAPMLTRRIGVGVAVLNRLLYAVGGFDGTNRLNSAECYYPERNEWRMITAMNTIRSGAGVCVLHNCIYAAGGYDGQDQLNSVERYDVETETWTFVAPMKHRRSALGITVHQGRIYVLGGYDGHTFLDSVECYDPDTDTWSEVTRMTSGRSGVGVAVT

Reference: US20200299675A1 (published 2020)
